The chains behind the UniProt entries cited, without tags or fusion partners.
UniProt Q99720, whole entry: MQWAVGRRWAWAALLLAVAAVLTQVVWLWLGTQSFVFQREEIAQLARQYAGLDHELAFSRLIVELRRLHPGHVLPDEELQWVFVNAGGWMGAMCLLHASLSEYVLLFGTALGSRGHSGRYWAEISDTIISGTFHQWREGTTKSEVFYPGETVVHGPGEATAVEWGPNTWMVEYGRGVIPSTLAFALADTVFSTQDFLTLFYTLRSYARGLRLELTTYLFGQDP
UniProt Q9R0C9, whole entry: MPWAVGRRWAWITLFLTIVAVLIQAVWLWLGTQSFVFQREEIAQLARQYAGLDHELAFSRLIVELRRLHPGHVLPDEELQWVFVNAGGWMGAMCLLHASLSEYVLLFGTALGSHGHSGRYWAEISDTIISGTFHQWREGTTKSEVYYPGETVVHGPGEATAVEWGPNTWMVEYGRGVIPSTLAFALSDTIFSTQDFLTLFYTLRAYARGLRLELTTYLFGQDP

In ChEMBL document CHEMBL1828538, “Synthesis and pharmacological evaluation of indole-based sigma receptor ligands” (Eur J Med Chem, 2011):

Legend:
Rattus norvegicus = species: Rattus norvegicus; test: Selectivity ratio of Ki for sigma 1 receptor in rat brain membrane to sigma 2 receptor in rat brain membrane; format: cell membranes
[1] = target: Sigma non-opioid intracellular receptor 1 (Homo sapiens, UniProt Q99720); test: Binding affinity to sigma 1 receptor
[2] = Displacement of [3H]di-o-tolylguanidine from sigma 2 receptor in rat brain membrane after 120 mins; format: cell membranes
[3] = target: Sigma non-opioid intracellular receptor 1 (Rattus norvegicus, UniProt Q9R0C9); test: Displacement of (-)-[3H]pentazocine from sigma 1 receptor in rat brain membrane after 120 mins; format: cell membranes

Ratio Ki (Rattus norvegicus): 38.4
SMILES: COc1cc2c(cc1OC)CN(CCCCn1ccc3ccccc31)CC2

Ki [1]: 17 nM
SMILES: Fc1ccc(-n2cc(CCCCN3CCC4(CC3)OCc3ccccc34)c3ccccc32)cc1 [SIRAMESINE]

SMILES: COc1cc2c(cc1OC)CN(CCCCn1cc(-c3ccc(F)cc3)c3ccccc31)CC2
Ki [2]: 7.45 nM | Ki [3]: 2950 nM

One block for each compound: values may come before it.
